From PubChem
Hits are enriched below; roughly 1.9% of the tested compounds scored in any of these assays.
PglD inh: C. jejuni PglD acetyltransferase inhibitors, primary screen, biochemical, DTNB colorimetric, single point; AID 602405, 2012; inhibition, % at 12.5 µM; 360,000 compounds, 0.098% hits; UDP-N-acetylbacillosamine N-acetyltransferase PglD (Campylobacter jejuni); purified PglD enzyme, DTNB colorimetric CoA detection; in the data active means inhibition above about 16%, passing the limit was not always enough; inconclusive means no clear call, values can overlap the other calls
Yeast UUG start: alters start codon recognition fidelity in yeast | S. cerevisiae UUG-firefly luciferase reporter, luminescence/redox ratio | activity score, % at 18.7 µM | hit rate 0.13% among 350,000 | AID 602363;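 active means replicate mean at a twofold rise or more, about +100% in these data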;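 further: firefly luciferase made from a UUG start codon reports start codon fidelity; reporter light over untreated wells divided by growth signal over untreated wells; some hits fall short of that in this replicate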
PDI inh: inhibitors of human PDI, primary screen, biochemical, turbidity, single point, plate reader. Protein disulfide-isomerase (Homo sapiens), P07237. PDI insulin aggregation turbidity, A650, 90 min. inhibition, % at 10 µM. 350,000 compounds, 0.052% hits. AID 588391, 2011;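 active means mean inhibition across replicates of 30% or more, whatever share of single replicates reach that level; inconclusive means mean inhibition below 30% while every single replicate reaches 30%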
ERp5 inh: inhibitors of ERp5-driven insulin aggregation, primary screen, biochemical, turbidity, absorbance 650 nm, single point; inhibition, % at 9.99 µM; Protein disulfide-isomerase A6 (Homo sapiens), Q15084; 350,000 compounds, 0.05% hits; 90 min; AID 651711, 2012;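 active means mean replicate inhibition above about 25%, with every replicate also reaching it, limit read from the data, passing the limit was not always enough; inconclusive means only one of those two criteria met; inactive means neither criterion met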
FGF22 binding: binders of human FGF22 protein, primary screen, FGF22 synaptogenesis inhibitor project, biophysical, thermal shift, single point; AID 651658, 2012; activity (Tm shift, normalised), % at 9.99 µM; 340,000 compounds, 1.5% hits; recombinant FGF22 thermal shift, SYPRO orange fluorescence; percent of sucrose octasulfate shift, DMSO zero; Fibroblast growth factor 22 (Homo sapiens), Q9HCT0;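 active means mean Tm shift, scaled 0 neutral to 100 positive control, at about 1.3% or above, every replicate too, limit read from the data; inconclusive means no clear call, values can overlap the other calls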
ARNT-TACC3 inh: disruptors of ARNT/TACC3 protein interaction, primary screen, biochemical, AlphaScreen, single concentration | AlphaScreen His-ARNT PAS-B/GST-TACC3 binding, luminescence; TACC3 fragment carries E629A point mutation | inhibition, % at 9.99 µM | 390,000 compounds, 0.66% hits | AID 623870, 2012;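 active means mean inhibition of replicates at least 50% and at least half of replicates each reaching 50%; inconclusive means half or more replicates reach 50% but mean below 50%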;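 further: 0% = complete ARNT plus TACC3 wells and 100% = ARNT alone without TACC3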
The depositor's hits bear a star; ? = inconclusive; · = no result given.

no.	Compound	PglD inh	Yeast UUG start	PDI inh
1	CSC(=S)N/N=C/c1ccc(Br)cc1	·	·	-6
2	S=C(N/N=C/c1ccc(Br)cc1)N1CCCCC1	1	-35	6
3	S=C(N/N=C/c1ccc(Cl)cc1)N1CCOCC1	·	·	1
4	CC(=O)OC[C@H]1O[C@@H](n2ncc(=O)[nH]c2=O)[C@H](OC(C)=O)[C@@H]1OC(C)=O	-2	9	-6
5	CC(=O)OCC1OC(COC(C)=O)(c2ccc(C)cc2)C(OC(C)=O)C1OC(C)=O (stereo not given)	·	·	-1
6	C[C@H](CO)N1C[C@H](C)[C@H](CN(C)Cc2ccc(C(F)(F)F)cc2)Oc2c(NS(=O)(=O)c3ccccc3)cccc2C1=O	-3	-2	·
7	C[C@@H]1CN([C@H](C)CO)C(=O)c2cccc(NS(=O)(=O)c3ccc(F)cc3)c2O[C@@H]1CN(C)C(=O)Nc1ccccc1	-2	4	·
8	CCC(=O)N1CC2(C1)CN(Cc1ccc3c(c1)OCO3)[C@H](CO)c1c2c2ccc(OC)cc2n1C	·	·	·
9	CCOC(=O)c1sc(=NC(=O)c2ccc(C)c(C)c2)n(C)c1C	·	·	-2
10	CC(C)Oc1ccc(C2C(C#N)=C(N)Oc3c2oc(CO)cc3=O)cc1 (stereo not given)	·	·	-5
11	Cc1ccc(NC(=O)c2ccc(-n3cccn3)nc2)cc1	·	·	-2
12	CN1CCN(C(=O)c2ccc(-n3cccn3)nc2)CC1	·	·	4
13	Cc1noc(C)c1NC(=O)Nc1ccc2c(c1)C(=O)N([C@H](C)CO)C[C@@H](C)[C@@H](CN(C)C(=O)Nc1ccc(C(F)(F)F)cc1)O2	0	-25	·
14	COc1ccc(C(=O)Cc2ccccc2C(=O)O)cc1	·	·	-3
15	COc1ccc(C(=O)CSc2ccccc2C(=O)O)cc1	·	·	6

no.	ERp5 inh	FGF22 binding	ARNT-TACC3 inh
1	-1	0	2
2	1	0	38*
3	·	·	61*
4	·	·	-14
5	-8	51*	-1
6	-3	0	1
7	3	0	-8
8	5	0	·
9	1	43*	-8
10	?	44*	-7
11	1	0	3
12	-3	43*	3
13	0	-1	10
14	-10	0	-5
15	2	44*	-2

4 entries from above in a different format.
nr	mol	PglD inh	Yeast UUG start	PDI inh	ERp5 inh	FGF22 binding	ARNT-TACC3 inh
12	CN1CCN(C(=O)c2ccc(-n3cccn3)nc2)CC1	·	·	4	-3	43*	3
13	Cc1noc(C)c1NC(=O)Nc1ccc2c(c1)C(=O)N([C@H](C)CO)C[C@@H](C)[C@@H](CN(C)C(=O)Nc1ccc(C(F)(F)F)cc1)O2	0	-25	·	0	-1	10
14	COc1ccc(C(=O)Cc2ccccc2C(=O)O)cc1	·	·	-3	-10	0	-5
15	COc1ccc(C(=O)CSc2ccccc2C(=O)O)cc1	·	·	6	2	44*	-2

New compounds follow
no.	Compound	PglD inh	Yeast UUG start	PDI inh
16	O=C1CSC(=S)N1N=Cc1c(O)ccc2ccccc12	·	·	2
17	COc1cc(/C=N/N2C(=O)CSC2=S)cc(Br)c1O	-3	-10	2
18	COc1ccc2ccccc2c1/C=N/N1C(=O)CSC1=S	·	·	2
19	COc1cccc(/C=N/N2C(=O)CSC2=S)c1O	·	·	5
20	CC1(C)NC(=O)N(CCCCOc2ccc(Cl)cc2C=O)C1=O	-1	-6	-1
21	C[C@@H]1CN([C@@H](C)CO)C(=O)c2cccc(NC(=O)C3CC3)c2O[C@H]1CN(C)Cc1ccc(Cl)c(Cl)c1	8	10	·
22	Cn1ncc(Br)c1C(=O)NC1CCCCCCC1	-1	-10	-6
23	Cc1nn(C)c(C(=O)NNC(=S)NC2CCCCC2)c1Br	·	·	-9
24	CC(C)NC(=O)COC(=O)c1ccccc1C(=O)c1ccccc1	·	·	4
25	C[C@@H]1CN([C@H](C)CO)C(=O)Cc2cc(NC(=O)C3CCCCC3)ccc2O[C@H]1CN(C)C(=O)Nc1ccc(F)cc1	0	15	·
26	CCC(C)(C)NC(=O)CN(Cc1cccs1)C(=O)CNS(=O)(=O)c1ccc(C)cc1	-6	-12	-4
27	CC(C)(C)NC(=O)CN(Cc1cccs1)C(=O)CNS(=O)(=O)c1ccc(F)cc1	·	·	3
28	Cc1noc(C)c1NC(=O)Nc1ccc2c(c1)C(=O)N([C@@H](C)CO)C[C@@H](C)[C@H](CN(C)Cc1ccc(C(=O)O)cc1)O2	-3	-5	·
29	O=C(N/N=C/c1cccc([N+](=O)[O-])c1)C1COc2ccccc2O1 (stereo not given)	·	·	7
30	O=[N+]([O-])c1cccc(C=NNc2ccc3ccccc3n2)c1O	·	·	8

no.	ERp5 inh	FGF22 binding	ARNT-TACC3 inh
16	-19	0	68*
17	7	0	21
18	-1	0	-15
19	1	-1	67*
20	5	43*	-3
21	11	0	0
22	-3	0	-3
23	6	43*	8
24	8	44*	-9
25	5	0	0
26	·	·	1
27	-3	43*	-31
28	1	0	-6
29	-5	0	5
30	-9	1	72*

(next part)
no.	Compound	PglD inh	Yeast UUG start	PDI inh
31	O=C(CNC(=O)C1COc2ccccc2O1)N/N=C/c1ccc(O)cc1O (stereo not given)	·	·	5
32	Brc1ccccc1/C=N/Nc1ccc2ccccc2n1	·	·	-2
33	COc1cc([N+](=O)[O-])cc(/C=N\NC(=O)C2COc3ccccc3O2)c1O (stereo not given)	·	·	-7
34	O=C(N/N=C\c1cccc([N+](=O)[O-])c1O)C1COc2ccccc2O1 (stereo not given)	-7	-52	-1
35	O=C(C1CCCC1)N1C[C@H]2[C@@H](c3ccccc31)[C@H](CO)N2C(=O)Nc1cccc(F)c1	0	28	·
36	COc1cccc(C(=O)N2C[C@@H]3[C@H](c4ccccc42)[C@H](CO)N3Cc2cccnc2)c1	0	-9	·
37	CCC(=O)N1CC2(CN(Cc3cccnc3)C2)c2c(n(C)c3cc(OC)ccc23)[C@H]1CO	·	·	·
38	COc1ccc(S(=O)(=O)N(C)C[C@H]2Oc3c(NC(=O)Nc4cccc5ccccc45)cccc3C(=O)N([C@@H](C)CO)C[C@@H]2C)cc1	6	2	·
39	CN1CCN(/N=C/c2cccc(Cl)c2Cl)CC1	·	·	1
40	Clc1ccc(-c2ccc(CNCc3ccccn3)o2)cc1	6	-23	-8
41	COc1ccc(S(=O)(=O)N(C)C[C@@H]2Oc3ccc(NS(=O)(=O)c4ccc(F)cc4)cc3C(=O)N([C@@H](C)CO)C[C@H]2C)cc1	-3	-5	·
42	COc1cccc(NC(=S)/C(=C(\[O-])c2cc(C)n(-c3ccccc3F)c2C)[n+]2ccc(N(C)C)cc2)c1	·	·	-2
43	NS(=O)(=O)c1ccc(N/N=C/c2ccccc2C(=O)O)c([N+](=O)[O-])c1	·	·	-6
44	O=C(O)c1ccccc1/C=N/Nc1ccc(S(=O)(=O)N2CCOCC2)cc1[N+](=O)[O-]	·	·	-1
45	CCCCC(=O)OC1CCC2C3CCc4cc(O)ccc4C3CCC12C (stereo not given)	0	-13	71*

no.	ERp5 inh	FGF22 binding	ARNT-TACC3 inh
31	-2	0	94*
32	5	0	8
33	-8	1	72*
34	·	·	63*
35	-7	0	3
36	1	0	2
37	6	0	·
38	1	-1	-4
39	1	44*	·
40	0	0	73*
41	-1	0	-9
42	6	43*	3
43	3	43*	1
44	-1	0	·
45	1	0	-1
